Here are results for one molecule from BindingDB's records for doi:10.1016/j.chembiol.2011.01.012 (University of Luxembourg, 2011).

Amino acid sequences for entries named in this document (tags omitted). A change or cut given only in a name is not applied to a line headed by its entry.
UniProt P23458: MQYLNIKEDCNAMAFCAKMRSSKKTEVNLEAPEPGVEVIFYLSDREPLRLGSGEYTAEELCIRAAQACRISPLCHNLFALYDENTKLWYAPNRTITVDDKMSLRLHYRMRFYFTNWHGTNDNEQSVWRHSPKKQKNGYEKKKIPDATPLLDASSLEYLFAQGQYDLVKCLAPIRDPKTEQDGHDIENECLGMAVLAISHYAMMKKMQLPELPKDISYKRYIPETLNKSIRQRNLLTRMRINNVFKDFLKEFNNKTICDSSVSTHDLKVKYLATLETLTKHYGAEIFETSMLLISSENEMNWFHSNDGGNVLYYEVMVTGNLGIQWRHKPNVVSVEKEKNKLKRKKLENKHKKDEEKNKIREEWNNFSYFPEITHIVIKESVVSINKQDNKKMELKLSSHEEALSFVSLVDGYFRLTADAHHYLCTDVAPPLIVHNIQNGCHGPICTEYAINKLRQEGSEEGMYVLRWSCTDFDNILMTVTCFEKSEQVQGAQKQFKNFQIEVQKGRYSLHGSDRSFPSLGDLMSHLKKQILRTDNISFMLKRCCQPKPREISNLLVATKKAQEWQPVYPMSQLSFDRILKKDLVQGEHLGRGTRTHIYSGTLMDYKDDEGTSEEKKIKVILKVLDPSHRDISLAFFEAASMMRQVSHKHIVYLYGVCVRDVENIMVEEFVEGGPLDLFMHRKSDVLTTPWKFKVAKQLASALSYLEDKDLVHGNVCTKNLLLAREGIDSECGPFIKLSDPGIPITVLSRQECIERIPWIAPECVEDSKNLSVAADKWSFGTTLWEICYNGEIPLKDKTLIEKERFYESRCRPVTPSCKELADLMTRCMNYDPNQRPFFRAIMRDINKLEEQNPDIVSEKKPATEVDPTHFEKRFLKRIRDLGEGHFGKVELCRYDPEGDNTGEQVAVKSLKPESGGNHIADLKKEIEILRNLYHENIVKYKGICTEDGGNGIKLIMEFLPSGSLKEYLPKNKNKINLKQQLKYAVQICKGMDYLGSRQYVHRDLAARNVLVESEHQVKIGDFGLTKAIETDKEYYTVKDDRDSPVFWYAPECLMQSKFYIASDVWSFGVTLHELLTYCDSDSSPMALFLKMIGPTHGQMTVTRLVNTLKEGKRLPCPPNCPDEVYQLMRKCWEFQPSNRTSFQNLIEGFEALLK

SMILES strings stand for the structures.

In this assay the target is Tyrosine-protein kinase JAK1 (Homo sapiens, UniProt P23458). The assay is described as follows: Enzyme Assay. To be noted: pH 7.5; 30 °C.

For orientation: IC50 means the concentration that inhibits the measured activity by half.

The molecule `CC(C)(C)c1nc2c3ccc(F)cc3c3c(=O)[nH]ccc3c2[nH]1` [Jak Inhibitor 1] gave an IC50 of 5.2 nM. That is a single-digit nanomolar value.
